# Test results: PubChem BioAssay AID588819 (The Scripps Research Institute Molecular Screening Center, 2011)
# Protein sequences, listed by entry. Tags and fused reporters are not part of them. Lines headed by an entry give the natural chain unless they say otherwise; changes in a name come on top.
# UniProt P11229: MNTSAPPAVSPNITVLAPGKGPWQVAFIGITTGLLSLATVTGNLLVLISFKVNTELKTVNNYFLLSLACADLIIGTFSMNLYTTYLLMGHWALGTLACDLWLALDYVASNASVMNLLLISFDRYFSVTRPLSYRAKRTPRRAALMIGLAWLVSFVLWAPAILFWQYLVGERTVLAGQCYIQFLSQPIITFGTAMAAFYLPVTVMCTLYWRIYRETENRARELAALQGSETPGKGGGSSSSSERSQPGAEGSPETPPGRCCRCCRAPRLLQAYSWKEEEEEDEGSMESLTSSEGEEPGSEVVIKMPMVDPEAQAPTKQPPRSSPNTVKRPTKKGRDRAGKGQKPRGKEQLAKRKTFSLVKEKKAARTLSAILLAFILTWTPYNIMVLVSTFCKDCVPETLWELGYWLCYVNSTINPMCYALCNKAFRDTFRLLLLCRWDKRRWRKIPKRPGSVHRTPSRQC
# The entries are a selection whose mix differs from that of the whole data set. Active and inactive are the calls of the source. Rule as the data show it: active = activation above about 19% (passing the limit was not always enough); inactive = the rest.
# Target: Muscarinic acetylcholine receptor M1 (Homo sapiens) (UniProt P11229)
# Assay: human M1 muscarinic receptor positive allosteric modulators, primary screen, CHO-K1 cells, Fluo-8 calcium fluorescence, 1536-well (AID 588819)
# Conditions: CHO-K1 hM1, Fluo-8 calcium fluorescence, ACh EC20; at 3 µM; hits give high values; 0% = ACh EC20, 100% = maximal ACh
row,SMILES,activation
1,O=[N+]([O-])C1C(O)C(O)C([N+](=O)[O-])C(O)C1O (centres undefined),inactive: 5.57%
2,Nc1cc(N)c2nonc2c1[N+](=O)[O-],inactive: 0.9%
3,CC(C)CC(=O)NC(Sc1ccc(Cl)cc1)C(Cl)(Cl)Cl (centres undefined),inactive: -8.67%
4,Oc1ccccc1CNc1ccccn1,inactive: 5.42%
5,O=C(NC(Sc1ccncn1)C(Cl)(Cl)Cl)c1ccccc1 (centres undefined),inactive: 9.85%
6,COc1ccccc1OP(=O)(Nc1ccc(C)cn1)Oc1ccccc1OC,inactive: -4.32%
7,CC(C)[C@H]1C(=O)O[C@@H]2CCN3CC=C(COC(=O)[C@](C)(O)[C@]1(C)O)[C@H]23,inactive: -1.21%
8,Cc1ccc(OP(=O)(Nc2nccs2)Oc2ccc(C)cc2)cc1,inactive: 12.6%
9,CN1CCCC(OC(=O)C(c2ccccc2)c2ccccc2)C1 (centres undefined),inactive: -20.1%
10,Clc1ccc(Cl)c(NC2=NCC(CBr)S2)c1 (centres undefined),inactive: 11.9%
11,NC(=O)c1cc([N+](=O)[O-])cc([N+](=O)[O-])c1N,inactive: 4.38%
12,CN(C(=O)Cc1ccc(Cl)c(Cl)c1)[C@H]1CCCC[C@H]1N1CCCC1,inactive: -9.51%
13,Cc1ccc(N/C(=N/P(=O)(N2CCOCC2)N2CCOCC2)N2CCOCC2)cc1,inactive: -4.17%
14,CCN(N=Nc1nonc1N)c1nonc1N,inactive: 2.99%
15,Nc1cccc2ccc([As](=O)(O)O)cc12,inactive: 5.41%
16,Cc1cc(SC(NC(=O)c2ccc(F)cc2)C(Cl)(Cl)Cl)ncn1 (centres undefined),inactive: 4.29%
17,CCOP(=O)(Nc1ccccc1)OCC,inactive: 2.21%
18,Cc1ccc(NP(=O)(Oc2ccccc2F)Oc2ccccc2F)nc1,inactive: -6.51%
19,CN(C(=O)Cc1ccc(Cl)c(Cl)c1)[C@H]1CCCC[C@@H]1N1CCCC1,inactive: -5.43%
20,CC(=O)Nc1ccc([As](=O)(O)O)cc1,inactive: 4.16%
21,O=C(O)c1ccccc1[As](=O)(O)O,inactive: 18.3%
22,CCCC1OP(N)(=O)OCC1CC (centres undefined),inactive: 1.7%
23,CC(=O)O[C@]1(C)C(=O)OC/C2=C/CN(C)CCC(OC(=O)[C@@](O)(C(C)O)C[C@H]1C)C2=O (some centres undefined),inactive: 0.52%
24,O=P(Nc1nc2ccc(Cl)cc2s1)(c1ccccc1)c1ccccc1,inactive: -5.93%
25,CN(C)P(=O)(N(C)C)n1c(Nc2ccccc2)nnc1-c1ccccc1,inactive: 6.64%

row,SMILES,activation
1,COC(=O)C1(C)COP(=O)(Nc2ccccc2)OC1 (centres undefined),inactive: 3.98%
2,O=[N+]([O-])c1cccc(NC2=NCC(CBr)S2)c1 (centres undefined),inactive: 7.55%
3,O=C(O)CNc1ccc([As](=O)(O)O)cc1,inactive: -4.65%
4,C/C=C1/C[C@@H](C)[C@](O)(CO)C(=O)OCC2=CCN3CC[C@@H](OC1=O)[C@@H]23,inactive: 0.73%
5,CC(C)(C)C(=O)NC(Sc1ccncn1)C(Cl)(Cl)Cl (centres undefined),inactive: 9.32%
6,O=[N+]([O-])c1ncn(CCn2ncnc2[N+](=O)[O-])n1,inactive: 4.94%
7,O=C(Nc1cc([As](=O)(O)O)ccc1O)c1ccccc1,inactive: 7.93%
8,O=P1(N(CCCl)CCCl)OCCCS1 (centres undefined),inactive: 20.1%
9,CC(C)c1nc(Nc2ccccc2)n(P(=O)(N(C)C)N(C)C)n1,inactive: 4.84%
10,CC(C)=N/N=C(\N)N[N+](=O)[O-],inactive: 11.4%
11,CN(C)C(=O)OCCc1n(C)cc[n+]1C,inactive: 3.88%
12,CC1CCN(C(=O)Oc2c(Cl)cc(Cl)c3cccnc23)CC1,inactive: -1.93%
13,c1cc(-c2nn[nH]n2)ccc1-c1nn[nH]n1,inactive: 11.3%
14,Nc1ccc([As](=O)(O)c2ccc(N)cc2)cc1,inactive: 16.6%
15,C[N+]1=C2C=CC=CC=C2SC12C([N+](=O)[O-])=CC([N+](=O)[O-])=C[C-]2[N+](=O)[O-] (centres undefined),inactive: -0.3%
16,CCN(/C(=N/P(=O)(N1CCOCC1)N1CCOCC1)N1CCOCC1)c1ccc(OC)cc1,inactive: -0.13%
17,O=[N+]([O-])c1cccc2n[nH]nc12,inactive: 5.69%
18,CC(=O)N1C2C3N(C(C)=O)C1C1N(C(C)=O)C(C(N1C(C)=O)N3C(C)=O)N2C(C)=O,inactive: 8.6%
19,Cc1ccc(NP(=O)(Oc2ccccc2)Oc2ccccc2)nc1,inactive: -5.09%
20,CCc1nc2c(n1)c1c(non1O)c1c2no[n+]1[O-],inactive: -2.94%
21,O=[N+]([O-])c1cc([N+](=O)[O-])c(CCNc2ccccc2)c([N+](=O)[O-])c1,inactive: 0.6%
22,COc1ccc(C2=NCC(CBr)S2)cc1 (centres undefined),inactive: 7.13%
23,COc1ccc(C[C@H](C)NC[C@@H](O)c2ccc(O)c(NC=O)c2)cc1,inactive: 2.82%
24,c1nnnn1CCn1cnnn1,inactive: 13.5%
25,CC(C)C(=O)NC(Sc1ccccc1)C(Cl)(Cl)Cl (centres undefined),inactive: 0.42%

row,SMILES,activation
1,O=P(Nc1nccs1)(c1ccccc1)c1ccccc1,inactive: 7.79%
2,C(Cc1nn[nH]n1)Cc1nn[nH]n1,inactive: 5.38%
3,Nc1ccc([As](=O)(O)c2ccc([N+](=O)[O-])cc2)cc1,inactive: 5.1%
4,O=C(OC1CN2CCC1CC2)c1cccc(Cl)c1 (centres undefined),inactive: -21.8%
5,O=[N+]([O-])c1ccc(O)c(/C=N/Nc2ccc([N+](=O)[O-])cc2[N+](=O)[O-])c1,inactive: 8.43%
6,O=[N+]([O-])c1ncn(CCn2cnc([N+](=O)[O-])n2)n1,inactive: 10.3%
7,CC(=O)NC(SC(=S)N(C)C)C(Cl)(Cl)Cl (centres undefined),inactive: 8.43%
8,O=[As](O)(c1ccccc1)c1ccc(O)cc1,inactive: 0.16%
9,COc1ccc(CC2NCC(O)C2OC(C)=O)cc1 (centres undefined),inactive: 9.62%
10,O=P(Nc1nc2ccccc2s1)(c1ccccc1)c1ccccc1,inactive: -2.78%
11,C[C@H]1OP(=O)(Oc2ccccc2)[C@H](O)[C@H](O)[C@H]1N=[N+]=[N-] (some centres undefined),inactive: 3.77%
12,COc1ccc(N)c([N+](=O)[O-])c1[N+](=O)[O-],inactive: 2.38%
13,Nc1ccc(CCCCOc2ccccc2)cc1,inactive: 10%
14,O=P(Nc1ccccn1)(c1ccc(Br)cc1)c1ccc(Br)cc1,inactive: 1.37%
15,CCN(C(=O)COC(=O)C(O)(c1ccccc1)c1ccccc1)c1c(N)n(Cc2ccccc2)c(=O)[nH]c1=O,inactive: 14.3%
16,CC(NC(=O)COC(=O)C(O)(c1ccccc1)c1ccccc1)c1ccccc1 (centres undefined),inactive: -6.11%
17,Cc1ccccc1OP(=O)(Nc1ccccn1)Oc1ccccc1C,inactive: 0.14%
18,O=c1c2cc([N+](=O)[O-])ccc2[nH]c2c([N+](=O)[O-])cc([N+](=O)[O-])cc12,inactive: -5.74%
19,CN(C)C(=O)Oc1noc2ccccc12,inactive: 1.56%
20,COC(=O)c1cc2c(s1)N=C(c1ccccc1)N(C)P2(=O)N1CCOCC1 (centres undefined),inactive: 10.1%
21,Cc1ccc(OP(=O)(Nc2ccccn2)Oc2ccc(C)cc2)cc1,inactive: -5.91%
22,CC(=O)NC(SC(=S)N(CC(C)C)CC(C)C)C(Cl)(Cl)Cl (centres undefined),inactive: 9.89%
23,O=C(OC1CN2CCC1CC2)c1ccccc1 (centres undefined),inactive: -29.1%
24,CCC(=O)N1C2C3N(C(=O)CC)C1C1N(C(=O)CC)C(C(N1C(=O)CC)N3C(=O)CC)N2C(=O)CC,inactive: 8.2%
25,Clc1ccc(N2CCN(Cc3c[nH]c4ncccc34)CC2)cc1,inactive: -7.7%

row,SMILES,activation
1,O=P1(N(CCCl)CCCl)OCCC2CCCCN21 (centres undefined),inactive: 16%
2,CC1C(=O)OC2CCN3CC4OC4(COC(=O)C(C)(O)C1(C)O)C23 (centres undefined),inactive: 9.99%
3,CCNC(=S)/N=C(\N)N[N+](=O)[O-],inactive: 3.5%
4,O=C(NC1CCS(=O)(=O)C1)NP(=S)(Oc1ccccc1)Oc1ccccc1 (centres undefined),inactive: -9.22%
5,c1ccc(-c2nn[nH]n2)c(-c2nn[nH]n2)c1,inactive: 7.59%
6,C=C1C(=O)OC2CCN3CC=C(COC(=O)C(C)(O)C4(CO4)C1C)C23 (centres undefined),inactive: 1.81%
7,Cc1ccc(NP(=O)(Oc2cccc(C)c2)Oc2cccc(C)c2)nc1,inactive: 9.78%
8,CC(=O)Nc1ccc([As](=O)(O)O)c(O)c1,inactive: 10.9%
9,CC(=O)Nc1ccc(Oc2c([N+](=O)[O-])cc([N+](=O)[O-])cc2[N+](=O)[O-])cc1,inactive: 7.01%
10,CC(=O)c1ccc(N2CC2c2ccncc2)cc1 (centres undefined),inactive: 6.44%
11,N#C/C(=C\c1ccc(N(CCBr)CCBr)cc1)C(N)=O,inactive: 3.38%
12,COC(=O)C1(C)COP(=O)(NCc2ccccc2)OC1 (centres undefined),inactive: 3.01%
13,CC1C(=O)OC2CCN3CC=C(COC(=O)C(C)(O)C1(C)O)C23 (centres undefined),inactive: -0.14%
14,Cc1ccccc1CN(C)C(=O)COC(=O)C(O)(c1ccccc1)c1ccccc1,inactive: 10.3%
15,CCN(CC)CCOC(=O)C(O)(c1ccccc1)c1ccccc1,inactive: -25.1%
16,C[C@H]1OP(=O)(Oc2ccccc2)C[C@@H]2O[C@@H]21 (some centres undefined),inactive: 11%
17,C[C@@H]1C=CCP(=O)(Oc2ccccc2)O1 (some centres undefined),inactive: 7.23%
18,CCc1cc(O)c([N+](=O)[O-])c(C)c1[N+](=O)[O-],inactive: 3.43%
19,CC(C)(C)C(=O)NC(Sc1ccccc1)C(Cl)(Cl)Cl (centres undefined),inactive: -5.72%
20,O=P1(Nc2nc3ccc(Cl)cc3s2)COc2ccccc2O1 (centres undefined),inactive: 5.17%
21,CCOc1ccc(C2=NCC(CBr)S2)cc1 (centres undefined),inactive: 1.1%
22,COc1cc(C2NCCC3(OCCO3)C2(C)C)cc(OC)c1OC (centres undefined),inactive: 1.57%
23,CCOP(=O)(Nc1cccc2ccccc12)OCC,inactive: 14.8%
24,C[C@H]1C(=O)O[C@@H]2CCN3CC=C(COC(=O)[C@](C)(O)[C@]1(C)O)[C@H]23,inactive: 1.29%
